This is one part of the list. Some results for these compounds are left out of this collection, so the calls shown say nothing about other tests. Results filed as inconclusive are left out. Active and inactive are the calls of the source. Cut-off read from the data, not from the text of the source: inconclusive = inhibition above about 70% without an active follow-up result; inactive = below that.

In general, inhibition refers to the drop in the measured response relative to a control, in per cent.

A short description of this assay: M. tuberculosis growth inhibition, HTS (AID 449762).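 Note: bacterial growth assessed after seven days of incubation.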 Particulars: M. tuberculosis H37Rv growth inhibition, 7H9 media; at 25 µM; active compounds read high.
With `CN(C)c1cccc(C(=O)NCC2(N(C)C)CCCCC2)c1`, the inhibition is inactive: -1.89%.
The figure for `CC(C)Oc1ccc(C(=O)NCC2(N(C)C)CCCCC2)cc1` is inactive: 0.95%; for `COc1ccc(Br)c(C(=O)NCC2(N3CCCCC3)CCCCC2)c1` it is inactive: -9.03%.
The figure for `O=C(OC1CN2CCC1CC2)C(CO)(c1ccccc1)c1ccccc1` (centres undefined) is inactive: -2.92%; for `O=C(NCC1(N2CCCCC2)CCCCC1)c1cccc(Cl)c1` it is inactive: -1.49%.
Under `COc1cccc(C(=O)NCC2(N3CCCCC3)CCCCC2)c1` stands inactive: 3.02%; under `COc1ccc(Cl)cc1C(=O)NCC1(N(C)C)CCCCC1`, inactive: 8.28%.
On to `COc1cc(C(=O)NCC2(N(C)C)CCCCC2)c([N+](=O)[O-])cc1OC`, for which the inhibition is inactive: 1.68%.
Under `CN(C)C1(CNC(=O)c2ccc(Br)cc2)CCCCC1` stands inactive: 3.09%; under `Cc1cc(C(=O)NCC2(N3CCCCC3)CCCCC2)ccc1[N+](=O)[O-]`, inactive: -4.63%; under `CCN1CCCC(OC(=O)C2(O)c3ccccc3C=Cc3ccccc32)C1` (centres undefined), inactive: -2%.
Under `O=C(NCC1(N2CCCCC2)CCCCC1)c1cccc(Br)c1` stands inactive: 10.6%; under `COc1ccc(C(=O)NCC2(N(C)C)CCCCC2)cc1`, inactive: -0.3%.
On to `C=CCN1CCN(CCOC(=O)C(O)(c2ccccc2)c2ccccc2)CC1`, for which the inhibition was inactive: 0.52%.
On to `O=C(NCC1(N2CCCCC2)CCCCC1)c1cc(F)c(F)cc1Cl`, for which the inhibition was inactive: -2.32%.
In the case of `Cc1ccccc1C(=O)NCC1(N2CCCCC2)CCCCC1`, the inhibition was inactive: -3.07%.
Under `CN(C)C1CCCC1OC(=O)C(O)(c1ccccc1)c1ccccc1` (centres undefined) stands inactive: 3.08%.
Regarding `CN(C)c1ccc(C(=O)NCC2(N(C)C)CCCCC2)cc1`, the inhibition was inactive: 3.95%.
The figure for `Cc1ccc(C(=O)NCC2(N3CCCCC3)CCCCC2)cc1` is inactive: 7.79%; for `CC(C)N1C(=O)CC2(CCN(CCOC(=O)C(O)(c3ccccc3)c3ccccc3)CC2)C1=O` it is inactive: -5.79%; for `CCN(CC)CC(C)C(C)OC(=O)C(O)(c1ccccc1)c1ccccc1` (centres undefined) it is inactive: 0.61%.
As to `COc1cc(SC)ccc1C(=O)NCC1(N(C)C)CCCCC1`, the inhibition was inactive: 5.01%.
The figure for `CN1[C@@H]2CC[C@H]1CC(OC(=O)C(O)(c1ccccc1)c1ccccc1)C2` (some centres undefined) is inactive: 6.84%.
Under `O=C(NCC1(N2CCCCC2)CCCCC1)c1cc([N+](=O)[O-])ccc1Cl` stands inactive: -5.92%.

Source of the values: PubChem BioAssay AID449762 (Southern Research Specialized Biocontainment Screening …, 2010).
